Literature values as cited in patent US6428805B1, “Powdery nasal compositions” (Teijin Limited, priority 1998, dated 2002).

insulin
maximum blood concentration relative to injection administration of the same unit (10 units of insulin, nasal, rabbits): about 20% | maximum blood concentration (10 units of insulin, nasal, rabbits, Example 4 of JP Kokoku 62-42888): ≤ 200 μU/ml | absorption ratio determined from AUC (nasal versus injection, estimated): ≤ 10%
